Source: patent US7533723B2, “Well bore treatment fluid” (Schlumberger Technology Corporation, priority 2003, dated 2009)

Assay: Solubility in brine, oils and solvents (heat to 60° C., cool to 25° C., visual inspection, residue filtered and weighed)
Conditions: T=25° C.; for Solubility, Oil wt %: Mineral spirits, bp 179–210° C.; for Solubility, Brine wt %: brine = 1 mol/L NaCl, wet salts as active (dry) weight
[1] = EB (ethylene glycol butyl ether)

| Substance | Solubility, Solvent wt % (solvent chemistry) (1,3-butanediol) [wt %] | Solubility, Solvent wt % (solvent chemistry) (4-hydroxy 4-methyl 2-pentanone) | Dissolution in DOWANOL DPM (FIG. 2) (20 wt % in DPM) | Solubility, Solvent wt % (solvent chemistry) (DPM (dipropylene glycol methyl ether)) | Solubility, Solvent wt % (solvent chemistry) [1] | Solubility, Solvent wt % (solvent chemistry) (IPA (isopropanol)) | Solubility, Oil wt % | Solubility, Solvent wt % (solvent chemistry) (PnB (propylene glycol butyl ether)) | Solubility, Brine wt % [wt %] | Solubility, Solvent wt % (solvent chemistry) (butan-1-ol) | Solubility, Solvent wt % (solvent chemistry) (butan-2-ol) | Solubility, Solvent wt % (solvent chemistry) (octan-1-ol) [wt %] | Dissolution in DOWANOL DPM (FIG. 2) (5 wt % in DPM) |
| --- | --- | --- | --- | --- | --- | --- | --- | --- | --- | --- | --- | --- | --- |
| calcium neo-decanoate [Ca neo-Decanoate (dry^B)] | 0.5 | ≧30 (4-hydroxy 4-methyl 2- wt % | no visible precipitate | Glycol ethers: ≧30 (DPM^(3)), wt % | ≧30 (EB^(4)), ≧30 (PnB^(5)). wt % | Alcohols: ≧30 (IPA^(6)), ≧30 wt % | 0.5^(2) wt % | ≧30 (EB^(4)), ≧30 (PnB^(5)). wt % | 0.5 | Alcohols: ≧30 (IPA^(6)), ≧30 wt % | (butan-1-ol), ≧30 (butan-2- wt % | ≥ 30 |  |
| calcium neo-tridecanoate [Ca neo-Tridecanoate (dry)] |  |  |  |  | ≧30 (EB^(4)) wt % |  | 0.5^(2) wt % |  | 0.5 |  |  |  |  |
| calcium pivalate [Ca Pivalate, reference compound] |  |  |  |  |  |  |  |  |  |  |  |  | has not dissolved |
